The text below walks through data of ChEMBL document CHEMBL1136085, “Structure-activity study of novel tricyclic benzazepine arginine vasopressin antagonists” (Bioorg Med Chem Lett, 2003).

The chains behind the UniProt entries cited, without tags or fusion partners.
UniProt P30560, whole entry: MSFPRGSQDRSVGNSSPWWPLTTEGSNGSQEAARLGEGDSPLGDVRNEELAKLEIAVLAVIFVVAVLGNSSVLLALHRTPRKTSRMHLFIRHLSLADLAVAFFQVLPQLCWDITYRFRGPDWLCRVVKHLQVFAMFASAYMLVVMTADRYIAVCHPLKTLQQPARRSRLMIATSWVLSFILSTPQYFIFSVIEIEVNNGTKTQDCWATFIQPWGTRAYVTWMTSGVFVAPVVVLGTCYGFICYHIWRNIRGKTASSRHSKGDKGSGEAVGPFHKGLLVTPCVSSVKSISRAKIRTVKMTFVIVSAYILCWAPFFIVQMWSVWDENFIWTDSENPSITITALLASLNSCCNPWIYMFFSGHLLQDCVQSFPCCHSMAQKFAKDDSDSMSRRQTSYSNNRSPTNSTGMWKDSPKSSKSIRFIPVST

The test has as its target Vasopressin V1a receptor (Rattus norvegicus, UniProt P30560). As to the kind of experiment: Inhibition of [3H]AVP binding to Dawley rat hepatic vasopressin V1a receptor.

As to `Cc1ccc(F)cc1C(=O)Nc1ccc(C(=O)N2Cc3cccn3Cc3ccccc32)cc1`, the half-maximal inhibitory concentration (IC50) (usually the concentration needed to halve the response being measured) came out at 20 nM. `O=C(Nc1ccc(C(=O)N2Cc3cccn3Cc3ccccc32)cc1)c1ccccc1O`: the 50% inhibitory concentration (IC50) is 85 nM. Compared with the last compound, the IC50 is about 4.2-fold higher.
